Experimental data from patent publication US20060070135A1, “Compositions and methods for inhibiting the enzymatic activity of PTP-1B” (priority 1998, published 2006).

Biological target: T1, human PTP-1B (PTP-1B-GST fusion protein) (Homo sapiens, UniProt P18031)
T1 sequence (P18031 1-435): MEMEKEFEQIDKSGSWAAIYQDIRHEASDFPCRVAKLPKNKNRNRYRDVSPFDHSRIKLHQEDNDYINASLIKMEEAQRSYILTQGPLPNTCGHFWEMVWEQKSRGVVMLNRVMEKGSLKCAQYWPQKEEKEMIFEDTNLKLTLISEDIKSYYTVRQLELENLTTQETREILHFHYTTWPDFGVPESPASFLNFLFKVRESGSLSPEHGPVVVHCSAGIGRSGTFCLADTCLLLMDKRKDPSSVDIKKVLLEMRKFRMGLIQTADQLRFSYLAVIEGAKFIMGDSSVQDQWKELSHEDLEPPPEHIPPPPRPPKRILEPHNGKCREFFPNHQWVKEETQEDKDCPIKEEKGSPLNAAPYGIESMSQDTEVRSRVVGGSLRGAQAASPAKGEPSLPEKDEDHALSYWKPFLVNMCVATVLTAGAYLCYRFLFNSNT
Assay: biochemical
Conditions: read-out: % inhibition in cell-free assay

inhibition at 20 µM: 94%
Structure (SMILES): O=C1Nc2ccc(S(=O)(=O)Nc3ccc(NS(=O)(=O)c4ccc5c6c(cccc46)C(=O)N5)c4ccccc34)c3cccc1c23 [compound 18, 1,4-bis-(2-oxo-1,2-dihydrobenzo[cd]indole-6-sulfonylamino)-naphthalene]
